Test system: TAS2R16 H. griseus S251L
Assay: Calcium assay, single-point mutant H. griseus S251L TAS2R16
Conditions: HEK293T, Gα16/gust44, Calcium 4

OCc1ccccc1O[C@@H]1O[C@H](CO)[C@@H](O)[C@H](O)[C@H]1O [salicin] was tested, and the EC50 was over 2500 µM.
